Laboratory results as given in patent US20250091990A1, “DEUTERATED ORGANIC COMPOUNDS AND USES THEREOF” (ENGRAIL THERAPEUTICS, INC., priority 2022, published 2025).

Tested on: Adult male Wistar rats
Experiment: Conditioned Avoidance Response test
Format: in vivo, rat
Conditions: 0.5 mg/kg i.p., 30 minutes prior to test
Text: Example 8—Conditioned Avoidance Response Adult male Wistar rats are used.

Cc1nc2n(c(=O)c1CCN1CCC(c3noc4cc(F)ccc34)CC1)CCCC2 [risperidone]
Escape failures compared to vehicle: increases escape failures
